Reference: publication PMC3834833 (Nucleic Acids Research, 2013)
Positions count from the first letter of the chain named. Numbers in names are those of the source. Where “and” joins values, the source holds several entries; their conditions need not be identical. Equal entries are not always repeated.

Target: the molecule itself
Test: glycerol gradient centrifugation; 10 ml linear 20-40% (v/v) glycerol gradient, 10 mM Tris-HCl pH 8.0, 100 mM NaCl, 1 mM EDTA, 2 mM DTT; SW-41 rotor, 38 000 rpm, 24 h, 8°C; fractions by SDS-PAGE and Coomassie; S value and molecular weight by comparison with protein markers; major oligomeric state

B1: translin variant Ct-1 (E206A) (natural protein, human, UniProt Q15631 1-228, looked up)
chain: MSVSEIFVELQGFLAAEQDIREEIRKVVQSLEQTAREILTLLQGVHQGAGFQDIPKRCLKAREHFGTVKTHLTSLKTKFPAEQYYRFHEHWRFVLQRLVFLAAFVVYLETETLVTREAVTEILGIEPDREKGFHLDVEDYLSGVLILASELSRLSVNSVTAGDYSRPLHISTFINELDSGFRLLNLKNDSLRKRYDGLKYDVKKVAEVVYDLSIRGFNKETAAACVEK
notes: translin, human; mutant of the pQE-9 translin plasmid made by QuikChange site-directed mutagenesis; Same construct as m1 with the stated substitution; also called C-terminal 1; source: E. coli, purified
stoichiometry N: 2 subunits and 2.1 subunits

B2: translin variant Ct-2 (R153A) (natural protein, human, UniProt Q15631 1-228, looked up)
chain: B1 chain with R153A, A206E
notes: translin, human; mutant of the pQE-9 translin plasmid made by QuikChange site-directed mutagenesis; Same construct as m1 with the stated substitution; also called C-terminal 2; source: E. coli, purified
stoichiometry N: 2 subunits
